By UniProt entry, the sequences of proteins in these tests, tags left out.
UniProt Q9NY46, whole entry: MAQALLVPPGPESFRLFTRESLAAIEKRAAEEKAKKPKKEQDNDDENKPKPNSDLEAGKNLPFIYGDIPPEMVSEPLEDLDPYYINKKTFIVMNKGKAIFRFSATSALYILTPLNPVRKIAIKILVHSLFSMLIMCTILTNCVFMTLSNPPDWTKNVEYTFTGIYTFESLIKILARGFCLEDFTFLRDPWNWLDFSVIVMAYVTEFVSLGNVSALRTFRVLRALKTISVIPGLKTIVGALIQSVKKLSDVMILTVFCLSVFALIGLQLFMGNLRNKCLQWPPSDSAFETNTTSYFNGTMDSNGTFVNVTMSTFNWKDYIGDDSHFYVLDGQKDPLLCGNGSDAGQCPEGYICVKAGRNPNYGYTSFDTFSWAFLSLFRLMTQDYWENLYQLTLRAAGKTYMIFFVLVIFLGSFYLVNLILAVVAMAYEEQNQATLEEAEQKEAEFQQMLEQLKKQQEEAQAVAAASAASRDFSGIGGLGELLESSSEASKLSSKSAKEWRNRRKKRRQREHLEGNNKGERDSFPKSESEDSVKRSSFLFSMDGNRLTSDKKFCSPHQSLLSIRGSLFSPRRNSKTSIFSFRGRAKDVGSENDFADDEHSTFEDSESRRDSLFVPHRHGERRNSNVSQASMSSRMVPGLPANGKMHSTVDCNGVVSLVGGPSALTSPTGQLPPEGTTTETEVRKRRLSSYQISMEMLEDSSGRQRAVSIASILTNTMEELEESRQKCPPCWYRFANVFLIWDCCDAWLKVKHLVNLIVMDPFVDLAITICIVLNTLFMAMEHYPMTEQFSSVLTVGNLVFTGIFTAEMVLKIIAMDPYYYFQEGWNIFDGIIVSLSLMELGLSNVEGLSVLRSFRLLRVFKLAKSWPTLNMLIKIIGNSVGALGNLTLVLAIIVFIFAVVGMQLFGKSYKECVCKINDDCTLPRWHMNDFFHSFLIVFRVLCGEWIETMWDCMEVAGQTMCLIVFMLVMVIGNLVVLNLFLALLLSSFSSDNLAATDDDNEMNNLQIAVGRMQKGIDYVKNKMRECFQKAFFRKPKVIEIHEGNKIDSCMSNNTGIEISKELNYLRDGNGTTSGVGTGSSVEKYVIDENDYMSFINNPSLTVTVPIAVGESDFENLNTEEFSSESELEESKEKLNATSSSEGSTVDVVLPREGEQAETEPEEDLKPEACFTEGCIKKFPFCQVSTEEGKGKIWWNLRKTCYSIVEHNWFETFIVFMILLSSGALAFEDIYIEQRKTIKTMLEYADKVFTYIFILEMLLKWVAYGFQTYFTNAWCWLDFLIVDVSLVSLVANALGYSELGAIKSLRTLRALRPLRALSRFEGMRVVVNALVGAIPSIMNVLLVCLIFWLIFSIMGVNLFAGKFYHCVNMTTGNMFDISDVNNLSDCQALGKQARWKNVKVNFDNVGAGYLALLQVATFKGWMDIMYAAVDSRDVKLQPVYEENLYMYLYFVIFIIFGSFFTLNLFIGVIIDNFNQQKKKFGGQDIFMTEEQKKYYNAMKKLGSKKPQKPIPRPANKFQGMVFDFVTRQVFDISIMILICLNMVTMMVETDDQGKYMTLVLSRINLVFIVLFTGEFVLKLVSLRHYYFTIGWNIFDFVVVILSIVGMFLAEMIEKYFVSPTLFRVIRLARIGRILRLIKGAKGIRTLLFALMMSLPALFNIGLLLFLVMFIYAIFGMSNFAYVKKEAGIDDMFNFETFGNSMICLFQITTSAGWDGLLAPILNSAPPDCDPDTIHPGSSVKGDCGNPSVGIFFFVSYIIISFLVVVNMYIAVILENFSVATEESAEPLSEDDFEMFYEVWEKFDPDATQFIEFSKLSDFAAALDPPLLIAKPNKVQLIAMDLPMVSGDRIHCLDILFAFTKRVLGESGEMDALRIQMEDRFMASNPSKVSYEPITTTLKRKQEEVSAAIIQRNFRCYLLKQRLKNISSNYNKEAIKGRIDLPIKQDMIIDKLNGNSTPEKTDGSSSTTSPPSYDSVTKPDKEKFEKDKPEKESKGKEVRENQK

In US8741934B2, “Inhibitors of ion channels” (Pfizer Limited, priority 2007, dated 2014):

Biological target: hSCN3A sodium channels (Homo sapiens, UniProt Q9NY46)
Experiment: hSCN3A electrophysiology, whole-cell patch-clamp or PatchXpress 7000, estimated IC-50 (Table B)
Settings: read-out: SCN3A EIC-50, hSCN3A cells

O=C(NCc1ccc(C(F)(F)F)cc1)c1ccc(S(=O)(=O)Nc2nnc(C(F)(F)F)s2)cc1
IC50: 15.1 µM
